Reference: BigSolDB 2.1

COC(=O)c1ccc(C(=O)OC)cc1
Settings	solubility (mole fraction)
in 2-butanone, 283.15 K	0.0102
in 2-butanone, 288.07 K	0.0126
in 2-butanone, 292.91 K	0.0154
in 2-butanone, 298.15 K	0.0189
in 2-butanone, 303.15 K	0.0229
in 2-butanone, 308.08 K	0.0275
in 2-butanone, 313.11 K	0.033
in 2-butanone, 318.31 K	0.0402
in 2-butanone, 323.14 K	0.0475
in acetone, 283.2 K	0.0085
in acetone, 288.19 K	0.0105
in acetone, 293.15 K	0.0128
in acetone, 298.15 K	0.0157
in acetone, 303.17 K	0.0191
in acetone, 308.12 K	0.0232
in acetone, 313.14 K	0.0278
in acetone, 318.1 K	0.0336
in acetone, 323.23 K	0.04
in acetonitrile, 283.18 K	0.00453
in acetonitrile, 288.2 K	0.00574
in acetonitrile, 293.25 K	0.00723
in acetonitrile, 298.33 K	0.00907
in acetonitrile, 304.51 K	0.0119
in acetonitrile, 308.17 K	0.0139
in acetonitrile, 313.14 K	0.0171
in acetonitrile, 318.15 K	0.021
in acetonitrile, 323.23 K	0.0258
in chloroform, 283.04 K	0.0676
in chloroform, 288.15 K	0.0742
in chloroform, 293.27 K	0.0814
in chloroform, 298.24 K	0.0889
in chloroform, 303.15 K	0.0969
in chloroform, 308.08 K	0.106
in chloroform, 313.04 K	0.115
in chloroform, 318.03 K	0.125
in chloroform, 323.07 K	0.136
in cyclohexanone, 283.2 K	0.0117
in cyclohexanone, 288.21 K	0.0148
in cyclohexanone, 293.16 K	0.0181
in cyclohexanone, 298.18 K	0.0223
in cyclohexanone, 303.14 K	0.0272
in cyclohexanone, 308.17 K	0.0334
in cyclohexanone, 313.14 K	0.0406
in cyclohexanone, 318.1 K	0.049
in cyclohexanone, 323.23 K	0.0588
in ethanol, 283.36 K	0.000978
in ethanol, 287.94 K	0.00125
in ethanol, 293.3 K	0.00167
in ethanol, 298.14 K	0.00212
in ethanol, 303.07 K	0.00274
in ethanol, 308.2 K	0.00357
in ethanol, 313.13 K	0.00458
in ethanol, 318.13 K	0.0059
in ethanol, 323.22 K	0.0076
in ethyl acetate, 283.08 K	0.0116
in ethyl acetate, 288.12 K	0.0146
in ethyl acetate, 293.15 K	0.0177
in ethyl acetate, 298.09 K	0.0213
in ethyl acetate, 302.93 K	0.0254
in ethyl acetate, 307.92 K	0.0304
in ethyl acetate, 312.84 K	0.0358
in ethyl acetate, 317.77 K	0.0421
in ethyl acetate, 322.97 K	0.05
in isobutanol, 283.3 K	0.000907
in isobutanol, 288.25 K	0.00132
in isobutanol, 293.33 K	0.00186
in isobutanol, 298.28 K	0.00249
in isobutanol, 303.15 K	0.00331
in isobutanol, 307.9 K	0.00427
in isobutanol, 312.78 K	0.00567
in isobutanol, 317.7 K	0.00741
in isobutanol, 323.1 K	0.0103
in isopropanol, 283.32 K	0.00089
in isopropanol, 288.3 K	0.00122
in isopropanol, 293.19 K	0.00159
in isopropanol, 298.5 K	0.00217
in isopropanol, 303.25 K	0.00288
in isopropanol, 308.15 K	0.00387
in isopropanol, 312.97 K	0.00509
in isopropanol, 318.15 K	0.00675
in isopropanol, 323.17 K	0.00882
in isopropyl acetate, 283.22 K	0.0104
in isopropyl acetate, 288.14 K	0.0126
in isopropyl acetate, 293.15 K	0.0151
in isopropyl acetate, 298.14 K	0.0181
in isopropyl acetate, 303.16 K	0.0216
in isopropyl acetate, 308.07 K	0.0256
in isopropyl acetate, 313.03 K	0.0305
in isopropyl acetate, 318.14 K	0.0363
in isopropyl acetate, 323.34 K	0.0434
in methanol, 283.15 K	0.000783
in methanol, 288.1 K	0.001
in methanol, 293.11 K	0.00126
in methanol, 298.19 K	0.00165
in methanol, 303.15 K	0.00215
in methanol, 308.1 K	0.00272
in methanol, 313.03 K	0.0035
in methanol, 317.95 K	0.00445
in methanol, 323.01 K	0.0057
in methyl propionate, 283.13 K	0.0135
in methyl propionate, 288.24 K	0.0162
in methyl propionate, 293.2 K	0.0196
in methyl propionate, 298.19 K	0.0234
in methyl propionate, 303.24 K	0.028
in methyl propionate, 308.29 K	0.0336
in methyl propionate, 313.16 K	0.04
in methyl propionate, 318.17 K	0.0471
in methyl propionate, 323.12 K	0.0553
in n-butanol, 283.14 K	0.00113
in n-butanol, 288.33 K	0.00156
in n-butanol, 293.63 K	0.00209
in n-butanol, 298.57 K	0.00277
in n-butanol, 303.38 K	0.00364
in n-butanol, 308.15 K	0.00477
in n-butanol, 313.1 K	0.00625
in n-butanol, 318 K	0.00812
in n-butanol, 322.98 K	0.0106
in n-butyl acetate, 283.26 K	0.0114
in n-butyl acetate, 288.15 K	0.014
in n-butyl acetate, 293.1 K	0.0168
in n-butyl acetate, 298.13 K	0.0202
in n-butyl acetate, 303.08 K	0.0245
in n-butyl acetate, 308.1 K	0.0297
in n-butyl acetate, 313.05 K	0.0354
in n-butyl acetate, 317.99 K	0.0423
in n-butyl acetate, 323.03 K	0.0502
in n-pentyl acetate, 283.12 K	0.0111
in n-pentyl acetate, 288.16 K	0.0136
in n-pentyl acetate, 293.34 K	0.0166
in n-pentyl acetate, 298.34 K	0.0204
in n-pentyl acetate, 303.25 K	0.0245
in n-pentyl acetate, 308.07 K	0.0295
in n-pentyl acetate, 313.12 K	0.0352
in n-pentyl acetate, 318.04 K	0.0425
in n-pentyl acetate, 322.96 K	0.0508
in n-propanol, 283.14 K	0.000703
in n-propanol, 288.03 K	0.000924
in n-propanol, 293.35 K	0.0013
in n-propanol, 298.04 K	0.00174
in n-propanol, 302.97 K	0.00224
in n-propanol, 308 K	0.00295
in n-propanol, 312.95 K	0.00379
in n-propanol, 317.98 K	0.00492
in n-propanol, 323.08 K	0.00638
in n-propyl acetate, 283.02 K	0.0119
in n-propyl acetate, 288.22 K	0.0145
in n-propyl acetate, 293.25 K	0.0174
in n-propyl acetate, 298.28 K	0.0208
in n-propyl acetate, 303.15 K	0.0248
in n-propyl acetate, 308.1 K	0.0296
in n-propyl acetate, 313.24 K	0.0364
in n-propyl acetate, 318.05 K	0.0416
in n-propyl acetate, 323.15 K	0.0497
